ARFGAP1 inh: inhibits rat ARF GTPase activating protein 1. 0.26% of 360,000 active. AID 651572. Arfgap1-stimulated ARF1 GTP hydrolysis, GDP FP detection. inhibition, % at 16.5 µM. Q62848;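 active = inhibition above a per-plate limit, mean inhibition of low control wells plus 3 SD, cut at about 25% in these data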;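 note: 0% = DMSO wells with enzyme and 100% = wells lacking Arfgap1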
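system = rat Arfgap1 catalytic domain, aa 1-136 | technique = FP, GDP Alexa 633 tracer displaced from anti-GDP antibody, 620/688 nm | compound = one concentration, 16.5 µM, DMSO 1.26% | medium = HEPES-based buffer, pH 7.5 | timing = compound-enzyme preincubation 20 min, reaction 120 min, detection 60 min, 25 °C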
NRP1-CendR mod: alters CendR peptide binding to human NRP-1. 0.85% of 360,000 active. AID 602438. FAM-RPARPAR peptide binding to NRP-1, fluorescence polarization. inhibition, % at 25 µM. O14786;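 active = inhibition or corrected inhibition above about 18%, plus a signal ratio from 0.5 to 1.5, limit read from the data, passing the limit was not always enough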
Yeast UUG start: modulators of yeast start codon fidelity, primary screen, whole organism, S. cerevisiae, single point, plate reader; S. cerevisiae UUG-firefly luciferase reporter, luminescence/redox ratio; activity score, % at 18.7 µM; actives 0.13% (n = 350,000); AID 602363, 2012;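 active = replicate mean at a twofold rise or more, about +100% in these data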;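 also: firefly luciferase made from a UUG start codon reports start codon fidelity; reporter light over untreated wells divided by growth signal over untreated wells; some hits fall short of that in this replicate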
ASAP1 inh: blocks human ASAP1-stimulated Arf1 GTP hydrolysis. GDP FP detection. inhibition, % at 16.5 µM. 0.19% of 360,000 active. AID 624377; in the data active = inhibition above about 25%;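 note: 0% = vehicle with enzyme and substrate and 100% = no enzyme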
MC4R barr agon: activates human MC4R beta-arrestin recruitment. P32245. U2OS MC4R beta-arrestin complementation, luminescence; percent of melanotan II response, DMSO zero. activation, % at 8.9 µM. 0.98% of 360,000 active. AID 540308;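 active = activation above a per-plate cutoff, the mean activation of sample wells on that plate plus 3 SD, cut at about 8% in these data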
MC4R antag cAMP: blocks human MC4R cAMP signaling; 0.48% of 360,000 active; inhibition, % at 6.5 µM; MC4R-expressing cells, MTII-stimulated cAMP, LANCE TR-FRET;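 active = inhibition above its plate's cutoff, the mean of tested wells on that plate plus 3 SD, cut at about 29% in these data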;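 note: 0% = Melanotan II alone and 100% = Melanotan II plus saturating MCL0020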
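Assay system: U2OS cells stably expressing human melanocortin 4 receptor (MC4R) / Dosing: 6.5 µM / Timing: compound 30 min, challenge 1 h, detection 1 h / Measured by: Eu-cAMP/anti-cAMP TR-FRET, emission 671 nm / Replicates: singlicate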
ARFGAP1 inh conf: rat ARFGAP1 inhibition, confirmed; 30% of 890 active; inhibition, % at 16.5 µM; shares compounds with ARFGAP1 inh; ARFGAP1-stimulated ARF1 GTP hydrolysis, GDP tracer FP; AID 651608;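 active = average inhibition over triplicates above the hit cutoff set in the earlier primary screen, cut at about 25% in these data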;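 note: 0% = Arfgap1 plus ARF1-GTP with DMSO and 100% = wells lacking Arfgap1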
* hit, by the source's call. A selection: hits, their analogues and other compounds. The true share with any hit is near 2.3%.

For CC(=O)Nc1cccc(-c2cc(NC=O)c3ncc(-c4ccc(C(C)=O)cc4)n3c2)c1 the results were ARFGAP1 inh 25*, NRP1-CendR mod -28, Yeast UUG start -12, ASAP1 inh 19, MC4R barr agon -2, MC4R antag cAMP 3 and ARFGAP1 inh conf 19.
For COc1ccc(-c2cc(NC=O)c3ncc(-c4cccc(C(=O)NCCN(C)C)c4)n3c2)cc1 the results were ARFGAP1 inh 27*, NRP1-CendR mod -24, Yeast UUG start -34, ASAP1 inh 8, MC4R barr agon 2, MC4R antag cAMP -15 and ARFGAP1 inh conf 27*.
For CC(=O)Nc1cc(-c2cccc(CO)c2)cn2c(-c3ccc(C(C)=O)cc3)cnc12 the results were ARFGAP1 inh -11, NRP1-CendR mod -16, Yeast UUG start 1, ASAP1 inh 3, MC4R barr agon 1 and MC4R antag cAMP 14.
For O=C(OC[C@@H]1[C@H]2c3ccccc3OC1(CO)N=C1SCCCN12)c1ccccc1 the results were Yeast UUG start -11.
For Cc1ccc(SCC(=O)OCC(=O)NCc2cccs2)cc1 the results were ARFGAP1 inh -3, NRP1-CendR mod 4, Yeast UUG start 1, ASAP1 inh 11, MC4R barr agon -4 and MC4R antag cAMP 3.
Screening O=C(COC(=O)CSc1ccc([N+](=O)[O-])cc1)NCc1cccs1 returned ARFGAP1 inh 26*, NRP1-CendR mod -4, Yeast UUG start -16, ASAP1 inh 7, MC4R barr agon -4, MC4R antag cAMP 4 and ARFGAP1 inh conf 9.
`CC(C)CC#Cc1cnc2c(c1)C(=O)N([C@H](C)CO)C[C@@H](C)[C@@H](CN(C)C(=O)c1cccnc1)O2` gave Yeast UUG start 16.
CCOC(=O)Cc1nc(-c2cccc(C(F)(F)F)c2)no1 was read as ARFGAP1 inh 27*, NRP1-CendR mod 9, ASAP1 inh 2, MC4R barr agon -3, MC4R antag cAMP -2 and ARFGAP1 inh conf 5.
C[C@@H]1CN([C@@H](C)CO)C(=O)c2cccc(NC(=O)Nc3ccccc3)c2O[C@@H]1CN(C)C was read as Yeast UUG start -2.
For O/N=C\c1ccc2noc(-c3ccc(Cl)cc3)c2c1 the results were ARFGAP1 inh 25*, NRP1-CendR mod 0, Yeast UUG start -34, ASAP1 inh 7, MC4R barr agon 7, MC4R antag cAMP 8 and ARFGAP1 inh conf 29*.
CN(C)CC#Cc1ccc([C@@H]2[C@@H](CO)N3CCCCN(S(=O)(=O)c4ccccc4F)C[C@@H]23)cc1 was read as Yeast UUG start 28.
`O=C(NCc1ccncc1)Nc1ccc(Cc2ccc(NC(=O)NCc3ccncc3)cc2)cc1` gave ARFGAP1 inh 27*, NRP1-CendR mod -14, Yeast UUG start -5, ASAP1 inh -2, MC4R barr agon -1, MC4R antag cAMP 1 and ARFGAP1 inh conf 56*.
CO[C@H]1CN(C)C(=O)c2cc(NC(=O)C3CC3)ccc2OC[C@@H](C)N(Cc2ccc(F)cc2)C[C@@H]1C was read as Yeast UUG start -3.
For O=C(CCCNC(=O)/C(=C/c1ccccc1F)NC(=O)c1ccccc1)OCc1ccccc1 the results were ARFGAP1 inh 27*, NRP1-CendR mod 3, ASAP1 inh -5, MC4R barr agon -2, MC4R antag cAMP 16 and ARFGAP1 inh conf 4.
For C[C@H]1CCCCO[C@H](CN(C)S(=O)(=O)c2cn(C)cn2)[C@@H](C)CN([C@@H](C)CO)C(=O)c2cc(NC(=O)CCCN(C)C)ccc2O1 the results were Yeast UUG start -26.
CC(C)C[C@H]1CN(CCCC[C@H]2CNC(=O)C(=O)N2CC2CCCCC2)C(=O)C(=O)N1CCc1ccccc1 was read as ARFGAP1 inh 30*, NRP1-CendR mod -16, ASAP1 inh -14 and ARFGAP1 inh conf 3.
`CC(C)C[C@H]1CN(CCCC[C@H]2CNC(=O)C(=O)N2CCc2ccccc2)C(=O)C(=O)N1CC1CCCCC1` gave ARFGAP1 inh 3, NRP1-CendR mod 3 and ASAP1 inh 0.
Screening Cc1ccccc1C(=O)N1CCN(c2ncccn2)CC1 returned ARFGAP1 inh 70*, NRP1-CendR mod -4, Yeast UUG start -2, ASAP1 inh -9, MC4R barr agon -1, MC4R antag cAMP 3 and ARFGAP1 inh conf 2.
C=CCn1c(=NC(=O)c2cccs2)sc2cccc(OC)c21 was read as ARFGAP1 inh 31*, NRP1-CendR mod 4, ASAP1 inh -1, MC4R barr agon 0, MC4R antag cAMP 8 and ARFGAP1 inh conf 0.
`C[C@H]1CN([C@@H](C)CO)C(=O)Cc2cc(NC(=O)CCCCCC(=O)Nc3ccccc3N)ccc2O[C@@H]1CN(C)C(=O)Nc1ccc(C(F)(F)F)cc1` gave Yeast UUG start -14.
For COc1ccc(C(=O)Nc2cccc(-c3ccc(N4CCOCC4)nn3)c2)cc1OC the results were ARFGAP1 inh 29*, NRP1-CendR mod -6, Yeast UUG start -6, ASAP1 inh 0, MC4R barr agon -2, MC4R antag cAMP 16 and ARFGAP1 inh conf 14.
`CCOc1ccc(C(=O)Nc2cccc(-c3ccc(N4CCOCC4)nn3)c2)cc1OCC` gave ARFGAP1 inh 18, NRP1-CendR mod -4, Yeast UUG start -20, ASAP1 inh 18, MC4R barr agon -3 and MC4R antag cAMP -6.
`COc1ccc2nc(/C=N/NC(=O)[C@H](CCSC)NC(=O)OC(C)(C)C)ccc2c1` gave ARFGAP1 inh 27*, NRP1-CendR mod 1, ASAP1 inh 11, MC4R barr agon -1, MC4R antag cAMP 5 and ARFGAP1 inh conf 1.
Screening CNC(C)C#Cc1ccc2sc3cccc(OC)c3c(=O)c2c1 (stereo unspecified) returned ARFGAP1 inh 28*, NRP1-CendR mod -17, Yeast UUG start 2, ASAP1 inh 22, MC4R barr agon 1, MC4R antag cAMP -6 and ARFGAP1 inh conf 6.

Next section (3 carried over from the part before).
`CCOc1ccc(C(=O)Nc2cccc(-c3ccc(N4CCOCC4)nn3)c2)cc1OCC` gave ARFGAP1 inh 18, NRP1-CendR mod -4, Yeast UUG start -20, ASAP1 inh 18, MC4R barr agon -3 and MC4R antag cAMP -6.
`COc1ccc2nc(/C=N/NC(=O)[C@H](CCSC)NC(=O)OC(C)(C)C)ccc2c1` gave ARFGAP1 inh 27*, NRP1-CendR mod 1, ASAP1 inh 11, MC4R barr agon -1, MC4R antag cAMP 5 and ARFGAP1 inh conf 1.
Screening CNC(C)C#Cc1ccc2sc3cccc(OC)c3c(=O)c2c1 (stereo unspecified) returned ARFGAP1 inh 28*, NRP1-CendR mod -17, Yeast UUG start 2, ASAP1 inh 22, MC4R barr agon 1, MC4R antag cAMP -6 and ARFGAP1 inh conf 6.
COC(=O)c1cc(C)[nH]c2c(C)cc3nc4ccccc4c3c12 was read as ARFGAP1 inh 41*, NRP1-CendR mod -1, Yeast UUG start -20, ASAP1 inh -1, MC4R barr agon 2, MC4R antag cAMP -4 and ARFGAP1 inh conf 14.
`COC(=O)c1c(C)nc2ccccc2c1C(=O)O` gave ARFGAP1 inh 0, NRP1-CendR mod 16, ASAP1 inh -3, MC4R barr agon 0 and MC4R antag cAMP 3.
For CN1C(=O)c2cc(NC(=O)c3cc(F)cc(F)c3)ccc2OC[C@@H]2O[C@@H](CC(=O)O)CC[C@@H]21 the results were Yeast UUG start -6.
`O=C(C[C@H]1CC[C@@H]2[C@H](COC[C@@H](O)CN2Cc2ccccc2F)O1)N[C@H]1CCN(Cc2ccccc2)C1` gave Yeast UUG start 0.
